{"source": "patent US10537567B2", "about": "“Kinase inhibitors for treatment of disease” (BioAxone BioSciences, Inc., priority 2017, dated 2020)", "origin": "cited, not measured here", "target": "PKA (Homo sapiens, UniProt P17612)", "details": "cited from earlier work", "data": [{"smiles": "O=c1[nH]ccc2c(S(=O)(=O)N3CCCNCC3)cccc12", "note": "[hydroxyfasudil]", "values": [{"measurement": "Binding to PKA", "value": "all bind PKA"}]}]}
